Measurements as given in US10150760B2, “Compounds for use in preparing heterocyclic triazole agonists of the APJ receptor” (AMGEN INC., priority 2016, dated 2018).

The chains behind the UniProt entries cited, without tags or fusion partners.
UniProt P35414, whole entry: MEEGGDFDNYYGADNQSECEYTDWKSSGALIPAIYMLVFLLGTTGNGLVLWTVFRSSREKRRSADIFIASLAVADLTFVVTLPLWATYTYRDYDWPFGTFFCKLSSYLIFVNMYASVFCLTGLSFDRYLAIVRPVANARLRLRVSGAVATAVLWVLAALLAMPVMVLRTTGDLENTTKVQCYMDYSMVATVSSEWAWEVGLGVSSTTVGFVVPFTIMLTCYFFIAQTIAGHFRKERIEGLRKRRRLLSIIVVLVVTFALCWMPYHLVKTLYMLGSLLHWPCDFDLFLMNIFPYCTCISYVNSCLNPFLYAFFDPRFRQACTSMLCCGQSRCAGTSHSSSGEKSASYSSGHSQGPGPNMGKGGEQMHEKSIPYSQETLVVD

Key:
APJ receptor = APJ receptor (Homo sapiens (Human), UniProt P35414); assay: [35S]GTPγS binding assay on membranes from CHO cells stably expressing human APJ receptor; format: biochemical; conditions: read-out: Activity hAPJ SPA EC50 IP
[1] = system: isolated perfused rat hearts; assay: Ex vivo isolated perfused rat heart assay (Langendorff apparatus), load independent inotropic and lusitropic effects; conditions: percent change over vehicle; further: test concentration or dose not given here

Row | Compound | pEC50 (APJ receptor) | Isolated Heart Assay dP/dtmax (%) ([1]; contractility) | Isolated Heart Assay dP/dtmin (%) ([1]; relaxation)
1 | COc1cccc(OC)c1-n1c(NS(=O)(=O)[C@@H](C)[C@H](C)c2ncc(Cl)cn2)nnc1C1COC(C)C1 (single isomer, unassigned) [443.0] | 7.77 |  | 
2 | COc1cccc(OC)c1-n1c(NS(=O)(=O)[C@@H](C)[C@H](C)c2ncc(Cl)cn2)nnc1C1COC(C)C1 (single isomer, unassigned) [444.0] | 8.72 |  | 
3 | COc1cccc(OC)c1-n1c(NS(=O)(=O)[C@@H](C)[C@H](C)c2ncc(C)cn2)nnc1C1CN2CCCC2CO1 (some centres unmarked) | 5.92 |  | 
4 | COc1cccc(OC)c1-n1c(NS(=O)(=O)[C@@H](C)[C@@H](OC(C)C)c2ncc(C)cn2)nnc1C1CCC(C)(C)O1 (single isomer, unassigned) |  | 4.09 | 2.60
5 | COc1cccc(OC)c1-n1c(NS(=O)(=O)[C@@H](C)[C@H](C)c2ncc(Cl)cn2)nnc1C1COC(C)C1 (single isomer, unassigned) [442.0] | 7.92 |  | 
6 | COc1cccc(OC)c1-n1c(NS(=O)(=O)[C@@H](C)[C@H](C)c2ncc(Cl)cn2)nnc1C1COC(C)C1 (single isomer, unassigned) [441.0] | 8.08 |  | 
7 | COc1cccc(OC)c1-n1c(NS(=O)(=O)C(C)c2ccccc2F)nnc1C1CCCO1 (single isomer, unassigned) [432.0] | 6.89 |  | 

pEC50: −log10 of the molar value.
